Experimental data: ChEMBL document CHEMBL5512616, “pH regulators and their inhibitors in tumor microenvironment” (Eur J Med Chem, 2024)
Values belong to the compound of their own block, whether it stands above or below them.

What was measured:
Carbonic anhydrase 2 [1] = molecular target: T1, Carbonic anhydrase 2 (Homo sapiens, UniProt P00918)
Carbonic anhydrase 9 = Carbonic anhydrase 9 (Homo sapiens, UniProt Q16790)
Carbonic anhydrase 2 [2] = molecular target: T1, Carbonic anhydrase 2; assay: Inhibition of human CA II by phenol red based stopped-flow CO2 hydration assay
Carbonic anhydrase 2 [3] = molecular target: T1, Carbonic anhydrase 2; remark: listed apart in the source
HCT-116 = assay: cells; conditions: Homo sapiens
MCF7 = assay: cells; conditions: Homo sapiens
HepG2 = assay: cells; conditions: Homo sapiens
A549 = assay: cells; conditions: Homo sapiens
Carbonic anhydrase 2 [4] = molecular target: T1, Carbonic anhydrase 2; remark: listed apart in the source

Ki (Carbonic anhydrase 2 [1]): > 10 µM
SMILES: Cc1cc(=O)oc2cc(OCc3cn(CCCCCCCCCCCCOc4ccc5ccc(=O)oc5c4)nn3)ccc12

Ki (Carbonic anhydrase 9): 10.8 µM
SMILES: Nc1ccc(S(=O)(=O)Nc2ccsc2-c2nc(-c3ccccc3)no2)cc1

Ki (Carbonic anhydrase 2 [2]): > 50 µM
SMILES: O=C(CNC(=O)Oc1ccccc1)Nc1ccc2oc(=O)ccc2c1

Ki (Carbonic anhydrase 2 [3]): > 100 µM
SMILES: C/C(=N\Nc1ccc(C#N)cc1)c1cc2ccccc2c(=O)o1

Ki (Carbonic anhydrase 2 [1]): > 50 µM
SMILES: COc1ccc(NC(=S)Nc2ccc3oc(=O)ccc3c2)cc1

IC50 (HCT-116): 11.1 µM
SMILES: Cc1ccc(S(=O)(=O)Nc2ccsc2-c2nc(-c3ccccc3)no2)cc1

Ki (Carbonic anhydrase 2 [1]): > 10 µM
SMILES: CCc1c(OCC(=O)c2ccccc2)ccc2c(C)c(CC(=O)OC)c(=O)oc12

IC50 (MCF7): 7.46 µM
IC50 (HepG2): 5.11 µM
IC50 (A549): 3.75 µM
SMILES: O=C(N/N=C/c1n[nH]c(-c2ccccc2)c1Cc1ccccc1)C12CC3CC(CC(C3)C1)C2

Ki (Carbonic anhydrase 2 [4]): > 10 µM
SMILES: Nc1ccc2c(c1)NC(=O)CC2
